How the values were obtained:
A33 antigen [1] = target: T1, A33 antigen (Homo sapiens, endogenous on SW1222 and …, UniProt Q99795); assay: flow cytometry on cells; Scatchard analysis: FITC-labelled antibodies titrated on 2.8 x 10^5 SW1222 cells, 2 h on ice, 350 ul PBS with 5% FCS and 0.1% sodium azide; fluorescence per cell calibrated with standard beads; linear regression; conditions: one partner purified
T1 construct: A33 antigen on human colorectal tumour cell lines; also called the antigen recognised by A33; source: endogenous, on SW1222 and Colo205 human colorectal tumour cells

A33 antigen [2] = target: T1, A33 antigen; assay: flow cytometry on cells; competition: Colo205 cells with a standard quantity of FITC-labelled murine A33 IgG and a dilution series of the humanised variants; bound FITC measured by FACScan; plotted against nM binding sites, triplicates; conditions: one partner purified

Kd (A33 antigen [1])	fold better binding than hIgG (competition) (A33 antigen [2])	Binder
1.27 nM		humanised A33 IgG1 (antibody, V domains shown) VH: EVQLLESGGGLVQPGGSLRLSCAASGFAFSTYDMSWVRQAPGKGLEWVATISSGGSYTYYLDSVKGRFTISRDSSKNTLYLQMNSLQAEDSAIYYCAPTTVVPFAYWGQGTLVTVSS VL: DIQMTQSPSSLSVSVGDRVTITCKASQNVRTVVAWYQQKPGLAPKTLIYLASNRHTGVPSRFSGSGSGTDFTFTISSLQPEDIATYFCQQHWSYPLTFGQGTKVEVK
	~2 fold	hA33 TFM (other, human, as the Fab' heavy chain constant segment of m6 (from the cB72.3 Fab'Acys gene of King et al. 1994); human kappa light chain constant region; Three Fab' chemically cross-linked through the single hinge thiol; single species of approximately 150 kDa on non-reducing SDS-PAGE; also called hTFM; trivalent Fab fragment; copies: 3 + 3) VH: EVQLLESGGGLVQPGGSLRLSCAASGFAFSTYDMSWVRQAPGKGLEWVATISSGGSYTYYLDSVKGRFTISRDSSKNTLYLQMNSLQAEDSAIYYCAPTTVVPFAYWGQGTLVTVSS VL: DIQMTQSPSSLSVSVGDRVTITCKASQNVRTVVAWYQQKPGLAPKTLIYLASNRHTGVPSRFSGSGSGTDFTFTISSLQPEDIATYFCQQHWSYPLTFGQGTKVEVK

Reference: PMC2034099, “Preparation and preclinical evaluation of humanised A33 immunoconjugates for radioimmunotherapy” (British Journal of Cancer, 1995)
